The experiment concerns the target T1, glutamine synthetase (Escherichia coli, UniProt P0A9C5).
T1 construct: gene glnA
The experiment can be described thus: coupled ADP/NADH oxidation assay with purified enzyme. The class given is biochemical.

Chains of the proteins cited; added tags and fusions are not shown. Residues count along the entry.
UniProt P0A9C5, 2-469: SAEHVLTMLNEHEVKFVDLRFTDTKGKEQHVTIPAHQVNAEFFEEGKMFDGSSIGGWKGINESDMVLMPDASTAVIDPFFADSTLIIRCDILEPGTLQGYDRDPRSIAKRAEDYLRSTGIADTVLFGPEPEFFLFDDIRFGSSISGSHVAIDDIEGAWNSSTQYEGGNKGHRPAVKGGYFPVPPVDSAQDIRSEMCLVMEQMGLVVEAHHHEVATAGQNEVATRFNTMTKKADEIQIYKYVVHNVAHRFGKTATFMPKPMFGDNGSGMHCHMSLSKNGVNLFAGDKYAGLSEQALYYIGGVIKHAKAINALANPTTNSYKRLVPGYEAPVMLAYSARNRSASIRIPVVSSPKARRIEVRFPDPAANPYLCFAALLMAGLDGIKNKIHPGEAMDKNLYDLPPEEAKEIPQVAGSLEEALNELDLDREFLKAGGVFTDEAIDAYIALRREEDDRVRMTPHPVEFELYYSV

By Ki is commonly meant a dissociation constant, usually derived from enzyme kinetics or from competition with a known ligand. Read a high Ki as a looser hold on the target. For `C[As](=O)(O)CC[C@H](N)C(=O)O` [AST, 2-amino-4-(hydroxymethylarsinoyl)butanoate], the affinity corresponds to a Ki of 300 ± 50 nM.

The record behind these values is paper PMC6465285, “Arsinothricin, an arsenic-containing non-proteinogenic amino acid analog of glutamate, is a broad-spectrum antibiotic” (Communications Biology, 2019).
